Read-outs that look alike come from different tables or passages of the source.
Experiment: Solubility evaluation for the solubilizer propylene glycol monocaprylate
Method: The resulting mixture was treated in a shaking constant temperature bath at 25° C. for 24 hours.
<Liquid Chromatography Conditions>

Row | Propylene glycol monocaprylate solubility | Substance | Propylene glycol monocaprylate solubility (25° C., 24 hours, 50 mg as memantine free base added to 1 mL)
1 | – | Memantine Hemi-Oxalate | <5000 µg/mL
2 | <5000 µg/mL | Memantine Hemi-L-Tartrate | –
